Reference: PubChem BioAssay AID594 (National Center for Advancing Translational Sciences (NCATS), 2007)
The list shows a part of the results, in another mix than the full data. Some tests of the compounds listed are not included; inactive here does not mean inactive elsewhere. The source made the active and inactive calls. Cut-off read from the data, not from the text of the source: active = max dye-equivalent concentration above about 11 nM; inconclusive = between about 1.1 nM and that limit; inactive = weaker than that.

Assay: qHTS Assay for Spectroscopic Profiling in Rhodamine Spectral Region
Conditions: Rhodamine-region fluorescence, 547/598 nm, Tris buffer
Description: NIH Molecular Libraries Screening Centers Network [MLSCN] NIH Chemical Genomics Center [NCGC] […] Occasionally, the artifactual effect may originate from the compound#s own spectral or other biophysical properties which generally tend to track its assay concentration. Pre-screening/profiling the library with respect to the compounds# spectral properties should help one exclude false positives early on. While the most informative fluorescent profiling data set is obtained by performing a full excitation and emission scan of each well by using a monochromator-based plate reader, such an approach is practical only on a very limited scale as scanning each well requires long time. An alternative approach, applied here, is to perform plate reader scans using selected excitation and emission wavelength pairs to generate a multidimensional relational database that correlates compound concentration and the respective relative fluorescence intensity at a given wavelength set. A standard curve of rhodamine present on each plate as six-point concentration series, was used to compute a normalized fluorescence response, termed dye-equivalent concentration, for each compound at each concentration.
NCGC Assay Protocol Summary: Buffer: 100 mM Tris buffer, pH 8.0 Dye standard plate: The wells in columns 1 through 4 of a Kalypsys polypropylene 1536-well compound plate were filled with standard solutions of fluorophore corresponding to the spectral region of interest. Solutions of rhodamine were placed in the following wells: E1, F1: 3 mM, E2, F2: 300 uM, E3, F3: 30 uM, E4, F4: zero (DMSO), G1, H1: 3 uM, G2, H2: […], G3, H3: 300 nM, G4, H4: zero (DMSO). Assay Steps: Six uL of buffer were dispensed to 1536-well Greiner black plates. Compounds and dye standards (23 nL) were transferred via Kalypsys PinTool. The plates were incubated for 15 min at room temperature, and then read on ViewLux (Perkin-Elmer) High-throughput CCD imager using 547 nm and 598 nm excitation and emission filter set. Keywords: NIH Roadmap, MLSCN, MLI, MLSMR, qHTS, NCGC, Rhodamine , Fluorescent Profiling.

| Compound | outcome |
| --- | --- |
| CN(C)c1cccc(C(=O)NCC2(N(C)C)CCCCC2)c1 | inactive |
| C=C(C)C#C[C@@](O)(C(=O)OC1CCN(C)CC1)c1ccccc1 | inactive |
| O=C(OC1CN2CCC1CC2)C(CO)(c1ccccc1)c1ccccc1 (stereo not given) | inactive |
| CN1CC[C@H](OC(=O)[C@](O)(c2ccccc2)C2CCCC2)C1 | inactive |
| CN1CCC[C@H](OC(=O)[C@](O)(c2ccccc2)C2CCCC2)C1 | inactive |
